Measurements from BindingDB's records for doi:10.1021/jm050680m (Johnson & Johnson Pharmaceutical Research and Development, 2005).

Experiments:
[1] = Antiproliferative activity against PDGF-BB stimulated HCASMC
[2] = as above; remark: listed apart in the source

`COc1cc2c(cc1OC)-c1n[nH]c(Nc3cccc(Cl)c3)c1C2` [3-chloro-N-(6,7-dimethoxy-2,4-dihydroindeno[1,2-c]pyrazol-3-yl)phenylamine] gave an IC50 [1] of 268 nM.

For `COc1cc2c(cc1OC)-c1n[nH]c(Nc3cccc(C)c3)c1C2` [3-methyl-N-(6,7-dimethoxy-2,4-dihydroindeno[1,2-c]pyrazol-3-yl)phenylamine], the IC50 [2] was 188 nM.

`COc1ccc2c(c1)-c1n[nH]c(Nc3ccccc3)c1C2` [(7-methoxy-2,4-dihydroindeno[1,2-c]pyrazol-3-yl)phenylamine] showed an IC50 [2] of 9 nM.
